System: Plasmodium berghei
Test: Antiplasmodial activity against liver stage Plasmodium berghei ANKA sporozoites expressing GFP infected in HepG2 cells pre-infected with cells for 1 hr prior to compound addition and measured after 48 hrs by flow cytometry analysis

| Compound | IC50 [µM] |
| --- | --- |
| FC(F)(F)c1noc(-c2ccc(CCN3CCC(Nc4nc5ccccc5[nH]4)CC3)cc2)n1 | 0.49 |
| COc1cc(NC(C)CCCN)c2ncccc2c1 (configuration not stated) [PRIMAQUINE] | 6 |

— ChEMBL document CHEMBL5236628 (J Med Chem, 2022)
